According to PubChem BioAssay AID652134 (The Scripps Research Institute Molecular Screening Center, 2013):
The entries are a selection whose mix differs from that of the whole data set. Active and inactive are the calls of the source.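 How the source made its calls: active means inhibition above the average of every tested compound plus 3 SD (cut at about 3.8% in these data); inactive means the rest.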

Chains of the proteins cited; added tags and fusions are not shown.
UniProt P51843, whole entry: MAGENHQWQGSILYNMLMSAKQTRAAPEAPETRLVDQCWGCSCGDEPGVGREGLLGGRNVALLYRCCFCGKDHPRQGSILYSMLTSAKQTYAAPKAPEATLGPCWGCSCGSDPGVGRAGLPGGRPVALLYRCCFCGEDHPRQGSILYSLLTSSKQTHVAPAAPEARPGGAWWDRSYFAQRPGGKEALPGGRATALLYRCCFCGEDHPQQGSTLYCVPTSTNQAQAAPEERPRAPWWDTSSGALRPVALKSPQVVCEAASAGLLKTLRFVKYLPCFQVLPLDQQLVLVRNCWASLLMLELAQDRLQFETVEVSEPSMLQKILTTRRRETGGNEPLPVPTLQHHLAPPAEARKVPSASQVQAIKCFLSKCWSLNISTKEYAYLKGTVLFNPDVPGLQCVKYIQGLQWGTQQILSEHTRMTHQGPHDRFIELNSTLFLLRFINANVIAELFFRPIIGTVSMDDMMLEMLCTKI

Each molecule was assayed against Nuclear receptor subfamily 0 group B member 1 (Homo sapiens) (UniProt P51843) (assay: DAX1 (NR0B1) inhibitors relieving SF-1 repression, confirmation, cell-based, luminescence, HEK293T, full-length DAX-1, SF-1 activated StAR promoter (AID 652134;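 further: 0% = DAX-1 cells with DMSO and 100% = no DAX-1 control cells with DMSO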)). Details: HEK293T StAR-promoter luciferase reporter, SF-1/DAX-1 repression; at 6.8 µM; active compounds read high.
With CN(C)c1ccc(C(=O)NCC2(N3CCCCC3)CCCCC2)cc1 the inhibition was active: 7.61%. With CSc1ccc(C(=O)NCC2(N3CCOCC3)CCCCC2)cc1 the inhibition was inactive: 3.45%. For O=C(NCC1(N2CCCCC2)CCCCC1)c1ccc(=O)[nH]c1, the inhibition was active: 8.56%. With O=C(NCC1(N2CCCCC2)CCCCC1)c1ccc(Cl)nc1 the inhibition was active: 5.29%.
